Source: PubChem (Broad Institute)
Hits are enriched below; roughly 1.5% of the tested compounds scored in any of these assays.
RAD52 inh: inhibitors of human RAD52 DNA annealing; P43351; recombinant RAD52 DNA annealing, FRET fluorescence; inhibition, % at 18.7 µM; actives 0.46% (n = 360,000);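 active = every replicate showing at least 50% inhibition; inconclusive = mean inhibition at least 50% but not in every replicate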
UUG fidelity: yeast start codon fidelity modulation; activity score, % at 18.7 µM; actives 0.13% (n = 350,000); S. cerevisiae UUG-firefly luciferase reporter, luminescence/redox ratio; AID 602363;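 active means replicate mean at a twofold rise or more, about +100% in these data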;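 further: firefly luciferase made from a UUG start codon reports start codon fidelity; reporter light over untreated wells divided by growth signal over untreated wells; some hits fall short of that in this replicate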
CASP6 VEID inh: inhibitors of human caspase-6; P55212; purified caspase-6, Z-VEID-R110 cleavage fluorescence; inhibition, % at 12.5 µM; actives 0.53% (n = 350,000);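 active = mean inhibition across replicates at least about 35%, with every replicate also reaching that limit, limit read from the data; inconclusive = only one of the two criteria met; inactive = neither criterion met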
GSIS activator: primary screen for activators of insulin secretion dependent on glucose, INS-1E cells, GLuc reporter luminescence; INS-1E GLuc reporter insulin secretion, 2-3 h; activation, % at 16.6 µM; actives 0.61% (n = 370,000);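 active = lowest replicate activation of at least 40%, so every replicate reaches that level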
RAD54 inh: blocks human RAD54 Holliday junction branch migration; Q92698; FAM/BHQ fluorescence; inhibition, % at 10.4 µM; actives 0.14% (n = 360,000); AID 602329;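 active = mean normalized replicate activity at least 40 and at least half of replicates scoring 40 or more; inconclusive = only one of the two criteria met; inactive = mean below 40 and under half of replicates reaching 40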;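 note: inhibitors cause a drop in the FAM fluorescence signal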
PglD inh: blocks C. jejuni PglD acetyltransferase activity; purified PglD enzyme, DTNB colorimetric CoA detection; inhibition, % at 12.5 µM; actives 0.098% (n = 360,000); in the data active = inhibition above about 16%, passing the limit was not always enough; inconclusive = no clear call, values can overlap the other calls
RAD52 DNA ctr: binds DNA, flagging false RAD52 inhibitor hits. AID 652128. AC50, µM. shares compounds with RAD52 inh. actives 8% (n = 1,000). Salmon sperm DNA/acridine orange FP displacement, DNA binding;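 active = fitted half-maximal concentration for signal loss at or below twice the highest dose tested, in every separate run, actives reach about 64 µM in these data; inconclusive = runs disagree, or flat partial signal loss, or poor fit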
A number is an active result; - = inactive; ? = inconclusive; . = no result given; ! = not active in a repeat.

SMILES | RAD52 inh | UUG fidelity | CASP6 VEID inh | GSIS activator | RAD54 inh | PglD inh | RAD52 DNA ctr
COc1ccccc1CNC(=O)CNC(=O)N1CC(=O)Nc2ccccc21 | - | - | - | - | - | - | .
COc1cccc(C(=O)/C=C/Nc2ccc(S(=O)(=O)Nc3cccc(C(C)=O)c3)cc2)c1 | . | - | . | . | - | - | .
C[C@@H]1CN([C@@H](C)CO)C(=O)c2cccc(NC(=O)Nc3ccc4c(c3)OCO4)c2O[C@@H]1CN(C)Cc1ccc(Oc2ccccc2)cc1 | - | - | - | - | - | - | -
OC(CN1CCCC1)Cn1ccc2ccccc21 (configuration not stated) | 62 | - | - | - | - | - | -
CN1C(=O)c2cc(NS(=O)(=O)c3ccc(Cl)cc3)ccc2OC[C@@H]2O[C@@H](CC(=O)O)CC[C@H]21 | - | - | - | - | - | - | .
CC1(C)CC(=O)C=C(c2cn[nH]n2)C1 | - | - | - | - | - | - | .
CCCNc1nc2ccccc2n2c(C)nnc12 | 73 | - | - | - | - | - | -
O=C(Nc1cc(Cl)ccc1N1CCCC1)C1=COCCO1 | - | - | - | - | - | - | .
CCOC(=O)c1c(-c2ccccc2)oc2ccc(OCC(O)CN(C)C)cc12 (configuration not stated) | - | - | - | - | - | - | -
CC1CCCCN1CCNC(=O)c1cc2c(-c3ccccc3F)nn(C)c2s1 (configuration not stated) | 56 | - | - | - | - | - | -
CCOC(=O)N1CCC(NC(=O)c2cc3c(-c4ccccc4F)nn(C)c3s2)CC1 | - | - | - | - | - | - | .
CN1CCc2cccc3c2[C@H]1Cc1ccc(O)c(O)c1-3 | 90! | - | - | - | - | - | -
CC(C)N=C(NC#N)SCc1ccccc1 | . | - | . | . | - | - | .
O=C(C[n+]1ccc(C(=O)N/N=C/c2ccc(OCc3ccccc3)cc2)cc1)c1ccccc1 | - | - | - | - | - | - | .
COc1ccc(OC)c(/C=N/NC(=O)c2cc[n+](CC(=O)c3ccccc3)cc2)c1 | 57 | - | - | - | - | - | -
CCn1cc(C(=O)NN)c(=O)c2cc(F)c(N3CCN(C)CC3)cc21 | 97 | - | - | - | - | - | -
CN1CCN(CCCNC(=O)c2ccc(/C=C3\Sc4ccccc4N(Cc4ccccc4F)C3=O)cc2)CC1 | 90 | . | - | 120 | . | . | -
CC(C)NC(=O)c1cc2cc([N+](=O)[O-])ccc2s1 | . | - | . | . | - | - | .
CC(C)(C)NC(=O)CON=C1c2ccccc2-c2ccccc21 | - | - | - | - | - | - | .
CC(C)(C)NCC(O)CON=C1c2ccccc2-c2ccccc21 (configuration not stated) | 55 | . | - | - | . | . | -
O=C(CSc1nnc(CNC(=O)c2c(F)cccc2Cl)o1)Nc1ccccc1 | . | - | . | - | - | - | .
CCCCCOc1ccc(/C(C)=N/NC2=NCCN2)cc1 | - | - | - | - | - | - | .
CCCCCCOc1ccc(/C(C)=N/NC2=NCCN2)cc1 | 54 | - | - | - | - | - | -
COc1cc2cc(-c3ccc(O)cc3O)nc(C)c2cc1OC | - | - | - | - | - | - | .
COc1cc2cc(-c3ccc(OC)c(OC)c3C)nc(N)c2cc1OC | 61 | - | - | - | - | - | -
SMILES | RAD52 inh | UUG fidelity | CASP6 VEID inh | GSIS activator | RAD54 inh | PglD inh | RAD52 DNA ctr
C=CCOc1ccccc1C1NC(=O)NC(C)=C1C(=O)NCc1ccccc1 (configuration not stated) | . | - | . | - | - | - | .
Cc1ccc2nc(N=C(N)N)nc(C)c2c1 | 51 | - | - | - | ? | - | -
Cc1nc(N=C(N)N)nc2ccccc12 | 61 | . | - | - | . | . | -
Cc1cc2nc(N=C(N)N)nc(C)c2cc1C | 84 | - | - | - | ? | - | -
CCc1ccc2nc(N=C(N)N)nc(C)c2c1 | 51 | . | - | - | . | . | -
Cc1nc(/N=C(\N)NC(=O)c2ccccc2)nc2ccccc12 | - | - | - | - | - | - | .
CCCC(=O)N/C(N)=N/c1nc(C)c2cc(C)ccc2n1 | - | - | - | - | - | - | .
NC(=O)c1ccc2c(=O)n3c(-c4cc(Cl)c(N)c(Cl)c4)csc3nc2c1 | - | - | - | . | - | - | .
O=C1C(CSCc2ccccc2)NC(=S)N1c1ccccc1 (configuration not stated) | 56 | - | - | . | - | - | -
Cc1nc2cc(-c3ccc(Cl)cc3)nn2c(NCCN(C)C)c1C | 77 | . | - | - | . | . | -
C[C@H](CO)N1C[C@H](C)[C@@H](CN(C)Cc2ccc(Cl)c(Cl)c2)OCCCC[C@H](C)Oc2ccc(NS(C)(=O)=O)cc2C1=O | - | - | - | - | - | - | .
CCN(CCN(C)C)C(=O)c1ccc2c(c1NCCO)C(=O)c1ccccc1C2=O | 58 | . | - | - | . | . | 58µM
O=C1c2ccccc2C(=O)c2c1ccc(C(=O)N1CCCCC1)c2NCCO | . | - | . | . | - | - | .
O=C(N/N=C/C(Br)=C/c1ccccc1)c1n[nH]c2c1CCC2 | . | - | . | . | - | - | .
C[C@@H]1CNCCN1c1ccc(N2CCS(=O)(=O)CC2)c(C#N)c1 | 55 | . | - | - | . | . | -
NCCCCc1ccc2ccc3cccc4ccc1c2c34 | 53 | - | - | - | - | - | -
O=C(O)CCCc1ccc2ccc3cccc4ccc1c2c34 | - | - | - | - | - | - | .
CCCCOC(=O)Cn1c(=O)oc2ccc(C)cc21 | - | - | - | - | - | - | .
O=C(C[n+]1ccc2ccccc2c1)c1ccccc1 | - | - | - | - | - | - | .
O=C(C[n+]1ccc2ccccc2c1)c1ccc2ccc3ccccc3c2c1 | 90 | . | - | - | . | . | -
CCn1c2ccccc2c2cc(CN3CCN(Cc4cc(OC)ccc4O)CC3)ccc21 | 54 | - | - | - | - | - | -
C[C@H]1CN([C@@H](C)CO)C(=O)c2cc(-c3cccc(F)c3)cnc2O[C@@H]1CN(C)C(=O)c1cnccn1 | - | - | - | - | - | - | .
CCOc1cc2[nH]c(=S)n(Cc3ccc(C(=O)NCCN(CC)CC)cc3)c(=O)c2cc1OCC | 53 | - | - | - | - | - | -
CCOC(=O)CCc1c(C)nc(SCC(=O)O)c(C#N)c1C | . | - | . | . | - | - | .
CCOC(=O)CCc1c(C)nc(SCc2ccc(C(=O)O)cc2)c(C#N)c1C | 96 | - | - | - | - | - | -
SMILES | RAD52 inh | UUG fidelity | CASP6 VEID inh | GSIS activator | RAD54 inh | PglD inh | RAD52 DNA ctr
Cc1cc(=O)[nH]c2ccccc12 | . | - | . | . | - | - | .
Cc1cc2[nH]c3c(c[n+](C)c4ccccc34)c2cc1C | 104 | . | - | - | . | . | 8.5µM
Cc1coc2c1C(=O)C(=O)c1c-2ccc2c(C)cccc12 | . | - | . | . | - | - | .
CCCC(=O)Nc1ccc(S(=O)(=O)N2CCCC2)cc1 | - | - | - | - | - | - | .
CCC(=O)N1C[C@H](O)COC[C@@H]2O[C@@H](CC(=O)NCc3ccccc3Cl)CC[C@H]21 | - | . | - | - | - | - | .
CN(C)CCCN(C(=O)c1ccco1)c1nc2ccc(Cl)cc2s1 | - | - | - | - | - | - | .
